Substrate in data set [1]: Nc1nc(N)c2ncn(COCCO)c2n1
In words: (§1) Michaelis-Menten constant for Calf intestinal mucosa adenosine deaminase was determined.

Substrate in data set [2]: Nc1nc(F)c2ncn(COCCO)c2n1
The data set is described as §1.

Substrate in data set [3]: Nc1nc(Cl)c2ncn(COCCO)c2n1
Described as §1.

Substrate in data set [4]: Nc1nc(F)c2ncn(COC(CO)CO)c2n1
Described as §1.

Substrate in data set [5]: Nc1nc(Cl)c2ncn(COC(CO)CO)c2n1
Described as §1.

Substrate in data set [6]: Nc1nc(N)c2ncn(COC(CO)CO)c2n1
Described as §1.

Substrate in data set [7]: Nc1nc(N)c2ncn(COCCO)c2n1
Description: (§2) Vmax for Calf intestinal mucosa adenosine deaminase was determined.

Substrate in data set [8]: Nc1nc(F)c2ncn(COCCO)c2n1
The data set is described as §2.

Substrate in data set [9]: Nc1nc(Cl)c2ncn(COCCO)c2n1
Described as §2.

Substrate in data set [10]: Nc1nc(F)c2ncn(COC(CO)CO)c2n1
Described as §2.

Substrate in data set [11]: Nc1nc(Cl)c2ncn(COC(CO)CO)c2n1
The data set is described as §2.

Substrate in data set [12]: Nc1nc(N)c2ncn(COC(CO)CO)c2n1
The data set is described as §2.

B1: Adenosine deaminase (Bos taurus), P56658 (protein)
chain: MAQTPAFNKPKVELHVHLDGAIKPETILYYGRKRGIALPADTPEELQNIIGMDKPLSLPEFLAKFDYYMPAIAGCREAVKRIAYEFVEMKAKDGVVYVEVRYSPHLLANSKVEPIPWNQAEGDLTPDEVVSLVNQGLQEGERDFGVKVRSILCCMRHQPSWSSEVVELCKKYREQTVVAIDLAGDETIEGSSLFPGHVKAYAEAVKSGVHRTVHAGEVGSANVVKEAVDTLKTERLGHGYHTLEDATLYNRLRQENMHFEVCPWSSYLTGAWKPDTEHPVVRFKNDQVNYSLNTDDPLIFKSTLDTDYQMTKNEMGFTEEEFKRLNINAAKSSFLPEDEKKELLDLLYKAYGMPSPASAEQCL
On to B1, for which the Km in data set [1] amounted to 268 µM; in [2], 341 µM; in data set [3], 103 µM; in [4], 542 µM; in data set [5] it was 290 µM; in data set [6], 554 µM. Also, the Vmax (uM min-1 unit-1) in data set [7] worked out at 0.000816; in data set [8] it was 0.012; in data set [9], 0.000341; in [10] it was 0.00773; in [11], 0.000326; in data set [12], 0.000104.

(Values after ChEMBL document CHEMBL1127724, “Design and synthesis of 6-fluoropurine acyclonucleosides : potential prodrugs of acyclovir and ganciclovir” (Bioorg Med Chem Lett, 1994).)
